# Patent US20260049140A1
# Legend:
# biotinylated EGFR [1] = biological target: biotinylated EGFR (UniProt P00533); experiment: ELISA, biotinylated EGFR captured on neutravidin plates; PC treated with MMP9
# biotinylated CD3 [2] = biological target: biotinylated CD3 (UniProt P07766); experiment: ELISA, biotinylated CD3 captured on neutravidin coated plates, HRP secondary antibody, OD 450 nm; PC treated with MMP9
# biotinylated EGFR [3] = biological target: biotinylated EGFR (UniProt P00533); experiment: ELISA, biotinylated EGFR captured on neutravidin coated plates, HRP secondary antibody, OD 450 nm; PC treated with MMP9
# biotinylated EGFR [4] = biological target: biotinylated EGFR (UniProt P00533); experiment: ELISA, biotinylated EGFR captured on neutravidin plates; PC treated with MTSP1; PC-54 treated with MTSP1
# biotinylated CD3 [5] = biological target: biotinylated CD3 (UniProt P07766); experiment: ELISA, biotinylated CD3 captured on neutravidin coated plates, HRP secondary antibody, OD 450 nm; PC treated with MTSP1
# biotinylated EGFR [6] = biological target: biotinylated EGFR (UniProt P00533); experiment: ELISA, biotinylated EGFR captured on neutravidin coated plates, HRP secondary antibody, OD 450 nm; PC treated with MTSP1
# biotinylated CD3 [7] = biological target: biotinylated CD3 (UniProt P07766); experiment: ELISA, biotinylated CD3 captured on neutravidin plates; PC treated with MMP9
# biotinylated CD3 [8] = biological target: biotinylated CD3 (UniProt P07766); experiment: ELISA, biotinylated CD3 captured on neutravidin plates; PC treated with MTSP1
# biotinylated EGFR [9] = biological target: biotinylated EGFR (UniProt P00533); experiment: ELISA, biotinylated EGFR captured on neutravidin plates; PC treated with MTSP1
EC50 (read off the curve) (biotinylated CD3 [2]),EC50 (read off the curve) (biotinylated CD3 [5]),EC50 (read off the curve) (biotinylated EGFR [6]),Substance,also measured
8 nM,,,PC-54 + MMP9 (bispecific antibody; other documents disagree on this pair),EC50 (biotinylated EGFR [1]): 0.3 nM; EC50 (read off the curve) (biotinylated EGFR [3]): 0.4 nM
,40 nM,0.3 nM,PC-54 + MTSP1 (bispecific antibody; other documents disagree on this pair),EC50 (biotinylated EGFR [4]): 0.3 nM
0.4 nM,,,PC-56 + MMP9 (bispecific antibody; other documents disagree on this pair),EC50 (biotinylated CD3 [7]): 0.3 nM
,0.5 nM,0.3 nM,PC-56 + MTSP1 (bispecific antibody; other documents disagree on this pair),EC50 (biotinylated CD3 [8]): 0.5 nM; EC50 (biotinylated EGFR [9]): 0.3 nM
